Test [1] has as its target T1, γD-crystallin (Homo sapiens, UniProt P07320).
T1 construct: 6xHis (N); made in house; host or cells: M15pRep E. coli (pQe1 plasmid from King Labs, MIT)
T1 sequence (P07320 1-174): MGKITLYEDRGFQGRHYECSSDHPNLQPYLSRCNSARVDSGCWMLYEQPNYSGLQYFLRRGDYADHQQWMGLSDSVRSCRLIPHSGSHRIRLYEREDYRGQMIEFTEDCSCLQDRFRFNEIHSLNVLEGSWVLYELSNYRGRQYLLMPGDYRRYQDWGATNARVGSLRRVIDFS
Briefly: Dynamic light scattering (DLS) of γD-crystallin, hydrodynamic radius of monomer and aggregate. The settings on record: α-crystallin additive, molar ratio 3:1, one hour at 4° C. The test is classed as biochemical. As for the experimental part: (§1) The scattering wave vector is defined as q=4πn sin (θ/2)/λ, where θ is the scattering angle, and λ=514.5, the wavelength of the argon laser in vacuum, and n is 1.33, the refractive index of water. The temperature of the sample was held at constant temperature of 4 to 37±0.1° C. by a circulating water bath. The correlation function was analyzed using CONTIN analysis [NT] times for the correlation functions at measured angles. The peaks represent the diffusive mode of the proteins. The delay times (τ) were converted to Γ and graphed versus q^2. The slope of the fitted line is the diffusion coefficient (D). […] All solutions were filtered with 0.22 μm hydrophobic PVDF membranes (Fisher Scientific) into 10 mm diameter borosilicate glass tubes and sealed. Solutions were allowed to equilibrate for thirty minutes prior to measuring light scattering. […] The pH and salt concentration were adjusted via overnight dialysis at 4° C. and their final concentration adjusted to 1.0 g/L. […] The scattering wave vector is defined as q=4πn sin (θ/2)/λ, where θ is the scattering angle, and λ=514.5, the wavelength of the argon laser in vacuum, and n is 1.33, the refractive index of water. […] The correlation function was analyzed using CONTIN analysis [NT] times for the correlation functions at measured angles. […]

Test [2] has as its target T2, γS-crystallin (Homo sapiens, UniProt P22914).
T2 construct: 6xHis (N); made in house; host or cells: M15pRep E. coli (pQe1 plasmid from King Labs, MIT)
T2 sequence (P22914 1-178): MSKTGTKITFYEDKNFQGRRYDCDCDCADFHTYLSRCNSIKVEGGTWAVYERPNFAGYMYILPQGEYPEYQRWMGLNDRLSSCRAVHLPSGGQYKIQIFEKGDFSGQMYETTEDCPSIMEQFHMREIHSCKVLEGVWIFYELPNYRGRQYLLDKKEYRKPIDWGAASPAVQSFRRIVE
In words: Dynamic light scattering (DLS) of γS-crystallin, hydrodynamic radius of monomer and aggregate. It counts as biochemical. To be noted: α-crystallin additive, molar ratio 3:1, one hour at 4° C. As for the experimental part: as §1

B1: αA: αA-crystallin, heat shock protein and molecular chaperone, 19.9 kDa (protein, UniProt P02489 1-173, looked up)
Alpha-crystallin A chain: MDVTIQHPWFKRTLGPFYPSRLFDQFFGEGLFEYDLLPFLSSTISPYYRQSLFRTVLDSGISEVRSDRDKFVIFLDVKHFSPEDLTVKVQDDFVEIHGKHNERQDDHGYISREFHRRYRLPSNVDQSALSCSLSADGMLTFCGPKIQTGLDATHAERAIPVSREEKPTSAPSS
On to B1, for which the Rhf in test [1] (fast mode) turned out to be 2.7 nm; in test [2] (fast mode) it was 2.8 nm. In addition, the values for the Rhs in test [1] (slow mode) and in test [2] (slow mode) were 16 nm and 18 nm, respectively.

The record behind these values is US10413529B2, “Methods of inhibiting cataracts and presbyopia” (UNIVERSITY OF MASSACHUSETTS, priority 2013, dated 2019).
